Laboratory results from patent US20250332139A1, “PS[…] AND THEIR USE FOR TREATING […] AND NE[…] DISORDERS” (Transcend Therapeutics, Inc., priority 2021, published 2025).

Assay: Excipient compatibility study
Format: physicochemical
Method: In this Example, the physical and chemical compatibility of methylone drug substance, 50 mg with various commonly used solid dosage form excipients, as well as methylone active pharmaceutical ingredient (API) alone, was analyzed. Analyses were conducted at t=0, 2, 4 and 8 weeks for appearance, assay, and related substances for samples stored in closed vials at 25° C./60% RH and 40° C./75% RH.
Excipient Compatibility Sample Mixtures: The excipients and API were dispensed individually by weight into 20 mL clear borosilicate (type I) glass vials to fill the appropriate weights as listed in Table 12. Table 12 lists mixtures of API with varied excipients and a stand-alone control sample of API alone. Each excipient mixture sample preparation was conducted using a clean spatula to mix the vial ingredients for 30-60 seconds. Each vial was properly labeled with the description and storage conditions. One vial was used for testing at the initial (t=0) time point. Three vials, closed, were placed at each storage condition to allow sampling at each time point and one vial, closed, was placed at each storage condition for overage.
Excipient Compatibility Sample Analysis: Each individual vial sampled at the requested time points was analyzed for the following parameters: (a) Appearance (Visual); Assay (HPLC); (c) Related Substances (HPLC).

## CNC(C)C(=O)c1ccc2c(c1)OCO2 (stereo not drawn) [methylone, 3,4-methylenedioxy-N-methylcathinone]
2 Week 25° C./60% RH, closed vial
  Assay (% Recovery): 99.7 % Recovery
4 Week 25° C./60% RH, closed vial
  Assay (% Recovery): 100.3 % Recovery
4 Week 40° C./75% RH, closed vial
  Assay (% Recovery): 99.6 % Recovery
8 Week 25° C./60% RH, closed vial
  Assay (% Recovery): 98.2 % Recovery
8 Week 40° C./75% RH, closed vial
  Assay (% Recovery): 100.3 % Recovery
T = 0
  Assay (% Recovery): 100.6 % Recovery
